By UniProt entry, the sequences of proteins in these tests, tags left out. Where a name states a change or a piece, a line headed by the entry shows the natural chain unless it says otherwise. Residues count along the entry.
UniProt P17948, 27-1338: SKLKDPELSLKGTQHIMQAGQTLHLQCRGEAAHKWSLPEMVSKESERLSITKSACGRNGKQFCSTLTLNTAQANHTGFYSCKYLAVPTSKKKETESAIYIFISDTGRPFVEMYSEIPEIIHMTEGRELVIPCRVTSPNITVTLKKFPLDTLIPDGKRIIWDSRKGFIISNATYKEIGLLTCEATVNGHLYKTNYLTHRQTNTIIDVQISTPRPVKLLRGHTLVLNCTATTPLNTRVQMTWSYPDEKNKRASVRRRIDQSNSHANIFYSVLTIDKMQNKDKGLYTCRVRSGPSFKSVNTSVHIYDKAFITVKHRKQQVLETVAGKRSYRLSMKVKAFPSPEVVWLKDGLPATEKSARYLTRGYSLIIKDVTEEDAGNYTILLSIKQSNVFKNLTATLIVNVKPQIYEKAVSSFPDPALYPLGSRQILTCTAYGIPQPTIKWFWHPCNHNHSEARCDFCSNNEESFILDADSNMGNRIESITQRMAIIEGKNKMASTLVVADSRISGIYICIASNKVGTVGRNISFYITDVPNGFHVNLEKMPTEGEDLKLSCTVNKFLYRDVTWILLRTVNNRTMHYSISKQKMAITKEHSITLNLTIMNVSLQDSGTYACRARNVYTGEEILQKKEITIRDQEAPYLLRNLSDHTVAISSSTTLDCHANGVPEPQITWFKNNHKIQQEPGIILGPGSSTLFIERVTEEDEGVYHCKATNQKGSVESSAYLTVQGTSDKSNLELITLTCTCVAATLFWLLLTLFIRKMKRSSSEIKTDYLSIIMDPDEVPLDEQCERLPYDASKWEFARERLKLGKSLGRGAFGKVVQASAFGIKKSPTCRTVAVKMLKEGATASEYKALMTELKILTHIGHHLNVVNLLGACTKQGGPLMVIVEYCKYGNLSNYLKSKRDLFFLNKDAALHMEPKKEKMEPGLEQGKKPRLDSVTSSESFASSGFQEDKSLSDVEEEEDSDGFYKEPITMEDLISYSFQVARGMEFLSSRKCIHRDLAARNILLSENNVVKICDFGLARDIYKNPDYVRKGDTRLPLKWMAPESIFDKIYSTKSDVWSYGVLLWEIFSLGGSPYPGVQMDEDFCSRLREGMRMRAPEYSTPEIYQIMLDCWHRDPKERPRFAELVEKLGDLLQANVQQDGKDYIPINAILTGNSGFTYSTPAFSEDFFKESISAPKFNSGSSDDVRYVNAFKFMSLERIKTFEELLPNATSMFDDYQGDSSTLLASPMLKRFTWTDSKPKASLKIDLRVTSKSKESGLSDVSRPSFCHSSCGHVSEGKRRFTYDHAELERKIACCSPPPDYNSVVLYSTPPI
UniProt Q99683: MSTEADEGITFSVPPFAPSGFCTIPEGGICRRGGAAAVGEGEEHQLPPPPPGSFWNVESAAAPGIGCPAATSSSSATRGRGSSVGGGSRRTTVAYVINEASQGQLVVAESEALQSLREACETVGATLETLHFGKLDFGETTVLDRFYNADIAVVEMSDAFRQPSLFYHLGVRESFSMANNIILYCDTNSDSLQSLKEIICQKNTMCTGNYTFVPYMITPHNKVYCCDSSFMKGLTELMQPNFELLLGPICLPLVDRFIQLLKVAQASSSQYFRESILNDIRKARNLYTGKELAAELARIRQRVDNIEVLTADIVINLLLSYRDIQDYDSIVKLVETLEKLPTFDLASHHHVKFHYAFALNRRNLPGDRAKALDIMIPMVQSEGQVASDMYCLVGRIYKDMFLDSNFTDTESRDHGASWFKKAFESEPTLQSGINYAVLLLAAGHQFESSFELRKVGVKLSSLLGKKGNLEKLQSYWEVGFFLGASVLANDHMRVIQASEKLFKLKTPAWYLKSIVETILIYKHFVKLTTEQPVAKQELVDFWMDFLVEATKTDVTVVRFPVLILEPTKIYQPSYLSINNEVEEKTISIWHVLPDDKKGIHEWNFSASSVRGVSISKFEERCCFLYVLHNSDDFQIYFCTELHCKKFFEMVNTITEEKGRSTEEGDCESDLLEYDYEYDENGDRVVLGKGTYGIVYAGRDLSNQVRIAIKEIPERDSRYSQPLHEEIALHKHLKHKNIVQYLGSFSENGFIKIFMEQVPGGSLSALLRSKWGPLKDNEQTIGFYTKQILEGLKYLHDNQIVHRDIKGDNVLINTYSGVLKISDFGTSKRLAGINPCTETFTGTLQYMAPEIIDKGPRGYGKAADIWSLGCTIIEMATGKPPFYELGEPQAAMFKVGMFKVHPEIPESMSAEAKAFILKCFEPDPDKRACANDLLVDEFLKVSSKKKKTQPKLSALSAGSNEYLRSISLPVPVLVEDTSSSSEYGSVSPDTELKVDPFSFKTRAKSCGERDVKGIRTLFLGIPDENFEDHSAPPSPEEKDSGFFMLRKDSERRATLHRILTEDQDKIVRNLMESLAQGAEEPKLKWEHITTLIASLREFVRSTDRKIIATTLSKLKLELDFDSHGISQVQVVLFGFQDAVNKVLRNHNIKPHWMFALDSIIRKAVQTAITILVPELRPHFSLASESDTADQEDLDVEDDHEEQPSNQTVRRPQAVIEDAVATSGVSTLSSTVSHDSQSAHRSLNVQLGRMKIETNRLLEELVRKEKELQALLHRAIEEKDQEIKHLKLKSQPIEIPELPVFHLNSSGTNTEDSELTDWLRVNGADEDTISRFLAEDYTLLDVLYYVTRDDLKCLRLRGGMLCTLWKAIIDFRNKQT
UniProt Q96PY6: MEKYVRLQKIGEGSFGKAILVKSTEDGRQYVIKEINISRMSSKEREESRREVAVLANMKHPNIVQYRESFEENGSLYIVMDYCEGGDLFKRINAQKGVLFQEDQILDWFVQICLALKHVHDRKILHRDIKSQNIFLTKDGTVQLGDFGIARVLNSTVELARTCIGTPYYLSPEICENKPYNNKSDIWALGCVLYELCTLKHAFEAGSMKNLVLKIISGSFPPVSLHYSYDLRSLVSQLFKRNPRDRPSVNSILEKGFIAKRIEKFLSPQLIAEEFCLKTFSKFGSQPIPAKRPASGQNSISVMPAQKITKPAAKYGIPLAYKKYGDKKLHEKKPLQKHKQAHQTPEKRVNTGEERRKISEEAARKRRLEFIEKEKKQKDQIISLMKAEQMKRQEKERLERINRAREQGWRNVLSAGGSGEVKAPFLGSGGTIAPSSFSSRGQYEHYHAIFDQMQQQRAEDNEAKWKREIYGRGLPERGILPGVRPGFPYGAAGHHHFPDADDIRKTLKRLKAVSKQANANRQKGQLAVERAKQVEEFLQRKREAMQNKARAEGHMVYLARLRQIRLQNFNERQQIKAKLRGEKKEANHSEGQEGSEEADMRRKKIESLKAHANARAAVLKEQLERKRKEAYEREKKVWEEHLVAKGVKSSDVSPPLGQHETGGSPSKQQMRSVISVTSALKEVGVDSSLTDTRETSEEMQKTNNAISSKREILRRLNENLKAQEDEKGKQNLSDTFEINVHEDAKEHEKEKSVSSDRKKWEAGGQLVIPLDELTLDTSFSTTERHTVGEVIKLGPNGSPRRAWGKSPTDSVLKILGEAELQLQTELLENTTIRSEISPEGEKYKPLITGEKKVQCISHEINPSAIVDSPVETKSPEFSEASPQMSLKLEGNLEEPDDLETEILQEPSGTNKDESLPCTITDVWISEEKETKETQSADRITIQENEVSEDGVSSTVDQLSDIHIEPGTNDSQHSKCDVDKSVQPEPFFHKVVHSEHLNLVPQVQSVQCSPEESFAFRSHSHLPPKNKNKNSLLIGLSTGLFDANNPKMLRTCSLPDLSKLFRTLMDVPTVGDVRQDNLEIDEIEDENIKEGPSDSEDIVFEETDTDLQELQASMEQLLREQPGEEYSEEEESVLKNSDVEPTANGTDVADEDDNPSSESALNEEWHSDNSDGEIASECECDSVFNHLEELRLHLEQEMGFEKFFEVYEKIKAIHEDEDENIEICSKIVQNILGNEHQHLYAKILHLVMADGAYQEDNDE
UniProt P15056, whole entry: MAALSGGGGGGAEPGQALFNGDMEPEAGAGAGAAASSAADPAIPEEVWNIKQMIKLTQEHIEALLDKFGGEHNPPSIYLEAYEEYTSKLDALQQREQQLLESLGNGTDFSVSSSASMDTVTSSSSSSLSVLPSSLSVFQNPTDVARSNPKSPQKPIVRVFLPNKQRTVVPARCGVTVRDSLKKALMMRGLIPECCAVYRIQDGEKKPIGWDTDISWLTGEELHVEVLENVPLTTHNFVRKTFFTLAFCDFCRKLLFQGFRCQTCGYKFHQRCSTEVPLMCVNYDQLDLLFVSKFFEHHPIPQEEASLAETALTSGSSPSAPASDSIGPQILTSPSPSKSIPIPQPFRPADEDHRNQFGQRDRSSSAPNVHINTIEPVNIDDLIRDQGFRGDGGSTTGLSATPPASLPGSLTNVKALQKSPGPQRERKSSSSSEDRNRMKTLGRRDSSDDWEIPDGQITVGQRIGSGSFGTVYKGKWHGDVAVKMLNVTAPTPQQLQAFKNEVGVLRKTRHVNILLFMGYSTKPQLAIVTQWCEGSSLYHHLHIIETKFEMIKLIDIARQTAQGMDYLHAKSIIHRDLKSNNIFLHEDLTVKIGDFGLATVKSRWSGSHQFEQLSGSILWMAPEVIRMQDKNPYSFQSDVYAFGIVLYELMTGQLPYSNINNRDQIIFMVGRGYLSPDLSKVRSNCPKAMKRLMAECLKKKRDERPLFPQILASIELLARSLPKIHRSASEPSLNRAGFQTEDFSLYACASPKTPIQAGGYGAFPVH
UniProt P68400, whole entry: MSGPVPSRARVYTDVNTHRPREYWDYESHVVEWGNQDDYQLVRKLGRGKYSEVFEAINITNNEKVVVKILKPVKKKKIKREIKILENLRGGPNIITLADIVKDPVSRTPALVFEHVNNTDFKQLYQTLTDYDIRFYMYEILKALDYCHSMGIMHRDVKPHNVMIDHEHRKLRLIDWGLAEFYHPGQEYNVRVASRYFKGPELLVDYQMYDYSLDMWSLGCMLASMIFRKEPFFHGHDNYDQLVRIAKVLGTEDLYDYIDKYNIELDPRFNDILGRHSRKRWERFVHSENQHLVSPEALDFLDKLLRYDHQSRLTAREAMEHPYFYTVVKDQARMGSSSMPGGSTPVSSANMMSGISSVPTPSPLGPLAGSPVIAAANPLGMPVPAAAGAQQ
UniProt Q16539, whole entry: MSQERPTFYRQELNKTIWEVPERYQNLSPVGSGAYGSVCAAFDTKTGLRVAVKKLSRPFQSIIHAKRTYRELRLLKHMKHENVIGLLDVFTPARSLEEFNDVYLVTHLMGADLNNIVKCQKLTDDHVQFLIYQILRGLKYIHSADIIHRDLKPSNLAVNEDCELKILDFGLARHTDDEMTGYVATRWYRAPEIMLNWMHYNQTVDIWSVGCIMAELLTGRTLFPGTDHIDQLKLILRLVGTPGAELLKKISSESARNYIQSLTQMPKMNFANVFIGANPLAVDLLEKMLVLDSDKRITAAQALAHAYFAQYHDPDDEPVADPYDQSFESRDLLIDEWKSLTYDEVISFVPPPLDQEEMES
UniProt Q8TDX7: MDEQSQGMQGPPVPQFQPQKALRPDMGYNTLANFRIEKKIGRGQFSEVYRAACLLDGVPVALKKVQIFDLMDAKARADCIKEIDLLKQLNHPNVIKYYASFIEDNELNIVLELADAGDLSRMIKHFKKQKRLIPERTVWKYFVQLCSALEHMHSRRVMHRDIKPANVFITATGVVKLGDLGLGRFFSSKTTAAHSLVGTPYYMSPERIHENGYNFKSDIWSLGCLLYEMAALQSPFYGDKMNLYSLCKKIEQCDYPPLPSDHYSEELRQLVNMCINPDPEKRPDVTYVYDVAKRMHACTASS
UniProt Q8TF76: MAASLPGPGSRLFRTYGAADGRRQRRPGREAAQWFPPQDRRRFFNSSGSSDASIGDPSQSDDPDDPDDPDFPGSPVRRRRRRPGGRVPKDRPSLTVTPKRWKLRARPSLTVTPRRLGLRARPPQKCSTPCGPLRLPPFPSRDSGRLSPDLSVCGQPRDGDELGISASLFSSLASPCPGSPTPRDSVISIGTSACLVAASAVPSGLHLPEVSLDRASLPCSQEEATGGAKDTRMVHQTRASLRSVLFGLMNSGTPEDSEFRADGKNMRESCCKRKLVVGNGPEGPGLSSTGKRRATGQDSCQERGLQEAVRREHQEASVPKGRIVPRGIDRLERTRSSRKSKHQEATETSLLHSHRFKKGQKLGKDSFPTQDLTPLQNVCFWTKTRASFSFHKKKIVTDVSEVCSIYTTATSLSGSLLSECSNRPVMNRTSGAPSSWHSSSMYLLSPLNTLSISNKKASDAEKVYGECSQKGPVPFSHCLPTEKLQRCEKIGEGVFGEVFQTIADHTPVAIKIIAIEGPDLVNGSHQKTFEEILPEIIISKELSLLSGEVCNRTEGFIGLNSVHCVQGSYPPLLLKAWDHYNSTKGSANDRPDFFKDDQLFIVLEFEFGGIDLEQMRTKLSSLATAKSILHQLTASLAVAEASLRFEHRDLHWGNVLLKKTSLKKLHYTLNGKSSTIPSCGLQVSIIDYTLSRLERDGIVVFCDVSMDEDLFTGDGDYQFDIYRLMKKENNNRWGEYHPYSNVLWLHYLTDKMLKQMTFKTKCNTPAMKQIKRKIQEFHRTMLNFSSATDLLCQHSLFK

According to PMC8534050, “Discovery of a Potent and Highly Isoform-Selective Inhibitor of the Neglected Ribosomal Protein S6 Kinase Beta 2 (S6K2)” (Cancers, 2021):

Key:
Assay in all cases: DSF thermal shift assay
Type in all cases: binding
MAP2K4 = target: T1, MAP2K4 (Homo sapiens, UniProt P45985); conditions: read-out: ΔTm
T1 construct: purchased in-house DSF (thermal shift) panel per Fedorov et al
Experimental: (§1) Differences in the melting temperature (ΔTm) were measured as described by Fedorov et al.. Purified proteins were buffered in 25 mM HEPES (pH 7.5), 500 mM NaCl and were assayed in a 384-well plate with a final protein concentration of 2 μM in 10 μL assay volume. Inhibitors were added to a final concentration of 10 μM using an ECHO 550 acoustic dispenser (Labcyte, San José, CA, USA). As a fluorescence probe, SYPRO-Orange (Molecular Probes, Eugene, OR, USA) was added in a 1:5000 dilution. Filters for excitation and emission were set to 465 nm and 590 nm, respectively. The temperature was increased from 25 °C with 3 °C/min to a final temperature of 95 °C, while scanning, using the QuantStudio5 (Applied Biosystems, Waltham, MA, USA). Data were analyzed through Boltzmann equation in the Protein Thermal Shift software (Applied Biosystems, Waltham, MA, USA). Samples were measured in technical duplicates.

SRPK1 = target: T2, SRPK1 (Homo sapiens, UniProt Q96SB4); conditions: inhibitor 10 μM, protein 2 μM
T2 construct: purchased in-house DSF (thermal shift) panel per Fedorov et al
Experimental: as §1

FLT1 = target: T3, FLT1 (Homo sapiens, UniProt P17948); conditions: read-out: ΔTm
T3 construct: purchased in-house DSF (thermal shift) panel per Fedorov et al
Experimental: as §1

TOPK = target: T4, TOPK (Homo sapiens, UniProt Q96KB5); conditions: inhibitor 10 μM, protein 2 μM
T4 construct: purchased in-house DSF (thermal shift) panel per Fedorov et al
Experimental: as §1

MAP3K5 = target: T5, MAP3K5 (Homo sapiens, UniProt Q99683); conditions: read-out: ΔTm
T5 construct: purchased in-house DSF (thermal shift) panel per Fedorov et al
Experimental: as §1

MAP2K1 = target: T6, MAP2K1 (Homo sapiens, UniProt Q02750); conditions: inhibitor 10 μM, protein 2 μM
T6 construct: purchased in-house DSF (thermal shift) panel per Fedorov et al
Experimental: as §1

DAPK3 = target: T7, DAPK3 (Homo sapiens, UniProt O43293); conditions: read-out: ΔTm
T7 construct: purchased in-house DSF (thermal shift) panel per Fedorov et al
Experimental: as §1

MAP2K6 = target: T8, MAP2K6 (Homo sapiens, UniProt P52564); conditions: read-out: ΔTm
T8 construct: purchased in-house DSF (thermal shift) panel per Fedorov et al
Experimental: as §1

NEK1 = target: T9, NEK1 (Homo sapiens, UniProt Q96PY6); conditions: read-out: ΔTm
T9 construct: purchased in-house DSF (thermal shift) panel per Fedorov et al
Experimental: as §1

MARK3 = target: T10, MARK3 (Homo sapiens, UniProt P27448); conditions: read-out: ΔTm
T10 construct: purchased in-house DSF (thermal shift) panel per Fedorov et al
Experimental: as §1

MAPK15 = target: T11, MAPK15 (Homo sapiens, UniProt Q8TD08); conditions: read-out: ΔTm
T11 construct: purchased in-house DSF (thermal shift) panel per Fedorov et al
Experimental: as §1

BRAF = target: T12, BRAF (Homo sapiens, UniProt P15056); conditions: read-out: ΔTm
T12 construct: purchased in-house DSF (thermal shift) panel per Fedorov et al
Experimental: as §1

RPS6KA1 = target: T13, RPS6KA1 (Homo sapiens, UniProt Q15418); conditions: read-out: ΔTm
T13 construct: purchased in-house DSF (thermal shift) panel per Fedorov et al
Experimental: as §1

TAF1 = target: T14, TAF1 (Homo sapiens, UniProt P21675); conditions: inhibitor 10 μM, protein 2 μM
T14 construct: purchased in-house DSF (thermal shift) panel per Fedorov et al
Experimental: as §1

CLK3 = target: T15, CLK3 (Homo sapiens, UniProt P49761); conditions: read-out: ΔTm
T15 construct: purchased in-house DSF (thermal shift) panel per Fedorov et al
Experimental: as §1

SRC = target: T16, SRC (Homo sapiens, UniProt P12931); conditions: read-out: ΔTm
T16 construct: purchased in-house DSF (thermal shift) panel per Fedorov et al
Experimental: as §1

EPHA2 = target: T17, EPHA2 (Homo sapiens, UniProt P29317); conditions: read-out: ΔTm
T17 construct: purchased in-house DSF (thermal shift) panel per Fedorov et al
Experimental: as §1

CAMK2D = target: T18, CAMK2D (Homo sapiens, UniProt Q13557); conditions: read-out: ΔTm
T18 construct: purchased in-house DSF (thermal shift) panel per Fedorov et al
Experimental: as §1

AKT3 = target: T19, AKT3 (Homo sapiens, UniProt Q9Y243); conditions: read-out: ΔTm
T19 construct: purchased in-house DSF (thermal shift) panel per Fedorov et al
Experimental: as §1

MST3 = target: T20, MST3 (Homo sapiens, UniProt Q9Y6E0); conditions: read-out: ΔTm
T20 construct: purchased in-house DSF (thermal shift) panel per Fedorov et al
Experimental: as §1

CSNK2A2 = target: T21, CSNK2A2 (Homo sapiens, UniProt P19784); conditions: inhibitor 10 μM, protein 2 μM
T21 construct: purchased in-house DSF (thermal shift) panel per Fedorov et al
Experimental: as §1

BMP2K = target: T22, BMP2K (Homo sapiens, UniProt Q9NSY1); conditions: read-out: ΔTm
T22 construct: purchased in-house DSF (thermal shift) panel per Fedorov et al
Experimental: as §1

MAPK10 = target: T23, MAPK10 (Homo sapiens, UniProt P53779); conditions: read-out: ΔTm
T23 construct: purchased in-house DSF (thermal shift) panel per Fedorov et al
Experimental: as §1

CSNK1D = target: T24, CSNK1D (Homo sapiens, UniProt P48730); conditions: inhibitor 10 μM, protein 2 μM
T24 construct: purchased in-house DSF (thermal shift) panel per Fedorov et al
Experimental: as §1

DMPK1 = target: T25, DMPK1 (Homo sapiens, UniProt Q09013); conditions: inhibitor 10 μM, protein 2 μM
T25 construct: purchased in-house DSF (thermal shift) panel per Fedorov et al
Experimental: as §1

RPS6KA6 = target: T26, RPS6KA6 (Homo sapiens, UniProt Q9UK32); conditions: read-out: ΔTm
T26 construct: purchased in-house DSF (thermal shift) panel per Fedorov et al
Experimental: as §1

CK2A1 = target: T27, CK2A1 (Homo sapiens, UniProt P68400); conditions: read-out: ΔTm
T27 construct: purchased in-house DSF (thermal shift) panel per Fedorov et al
Experimental: as §1

MAPK14 = target: T28, MAPK14 (Homo sapiens, UniProt Q16539); conditions: read-out: ΔTm
T28 construct: purchased in-house DSF (thermal shift) panel per Fedorov et al
Experimental: as §1

NEK7 = target: T29, NEK7 (Homo sapiens, UniProt Q8TDX7); conditions: inhibitor 10 μM, protein 2 μM
T29 construct: purchased in-house DSF (thermal shift) panel per Fedorov et al
Experimental: as §1

PIM1 = target: T30, PIM1 (Homo sapiens, UniProt P11309); conditions: read-out: ΔTm
T30 construct: purchased in-house DSF (thermal shift) panel per Fedorov et al
Experimental: as §1

PHKG2 = target: T31, PHKG2 (Homo sapiens, UniProt P15735); conditions: inhibitor 10 μM, protein 2 μM
T31 construct: purchased in-house DSF (thermal shift) panel per Fedorov et al
Experimental: as §1

MAPK9 = target: T32, MAPK9 (Homo sapiens, UniProt P45984); conditions: read-out: ΔTm
T32 construct: purchased in-house DSF (thermal shift) panel per Fedorov et al
Experimental: as §1

MST4 = target: T33, MST4 (Homo sapiens, UniProt Q9P289); conditions: read-out: ΔTm
T33 construct: purchased in-house DSF (thermal shift) panel per Fedorov et al
Experimental: as §1

BMPR2 = target: T34, BMPR2 (Homo sapiens, UniProt Q13873); conditions: inhibitor 10 μM, protein 2 μM
T34 construct: purchased in-house DSF (thermal shift) panel per Fedorov et al
Experimental: as §1

GSG2 = target: T35, GSG2 (Homo sapiens, UniProt Q8TF76); conditions: inhibitor 10 μM, protein 2 μM
T35 construct: purchased in-house DSF (thermal shift) panel per Fedorov et al
Experimental: as §1

GPRK5 = target: T36, GPRK5 (Homo sapiens, UniProt P34947); conditions: inhibitor 10 μM, protein 2 μM
T36 construct: purchased in-house DSF (thermal shift) panel per Fedorov et al
Experimental: as §1

CN[C@@H]1C[C@H]2O[C@@](C)([C@@H]1OC)n1c3ccccc3c3c4c(c5c6ccccc6n2c5c31)C(=O)NC4 [Staurosporine, reference compound]
ΔTm at 10 µM (MAP2K4): 12.5 °C | ΔTm at 10 µM (SRPK1): 7.4 °C | ΔTm at 10 µM (FLT1): 12.5 °C | ΔTm at 10 µM (TOPK): 8.1 °C | ΔTm at 10 µM (MAP3K5): 17.6 °C | ΔTm at 10 µM (MAP2K1): 1.6 °C | ΔTm at 10 µM (DAPK3): 18.7 °C | ΔTm at 10 µM (MAP2K6): 12.5 °C | ΔTm at 10 µM (NEK1): -0.7 °C | ΔTm at 10 µM (MARK3): 19.2 °C | ΔTm at 10 µM (MAPK15): 14.2 °C | ΔTm at 10 µM (BRAF): 0.4 °C | ΔTm at 10 µM (RPS6KA1): 4.6 °C | ΔTm at 10 µM (TAF1): 0.4 °C | ΔTm at 10 µM (CLK3): 7.5 °C | ΔTm at 10 µM (SRC): 5.1 °C | ΔTm at 10 µM (EPHA2): 7.8 °C | ΔTm at 10 µM (CAMK2D): 17.5 °C | ΔTm at 10 µM (AKT3): 7.8 °C | ΔTm at 10 µM (MST3): 6.5 °C | ΔTm at 10 µM (CSNK2A2): 5.7 °C | ΔTm at 10 µM (BMP2K): 19.2 °C | ΔTm at 10 µM (MAPK10): 8.2 °C | ΔTm at 10 µM (CSNK1D): 2.5 °C | ΔTm at 10 µM (DMPK1): 9.8 °C | ΔTm at 10 µM (RPS6KA6): 1 °C | ΔTm at 10 µM (CK2A1): 4.4 °C | ΔTm at 10 µM (MAPK14): 0 °C | ΔTm at 10 µM (NEK7): -0.2 °C | ΔTm at 10 µM (PIM1): 11.5 °C | ΔTm at 10 µM (PHKG2): 22.5 °C | ΔTm at 10 µM (MAPK9): 4.8 °C | ΔTm at 10 µM (MST4): 4.6 °C | ΔTm at 10 µM (BMPR2): 2.9 °C | ΔTm at 10 µM (GSG2): 7.9 °C | ΔTm at 10 µM (GPRK5): 8.6 °C
